According to patent US20260384421A1, “NOVEL COMPOUNDS THAT CAN BE USED AS THERAPEUTIC AGENTS” (published 2026):
Where two headings read alike, the source gives them in different places.

Experiments:
MDA-MB-231 cells = test: alamarBlue proliferation assay with MDA-MB-231 cells (glucose-free Leibovitz's L-15 medium)
A-549 cells = test: alamarBlue proliferation assay with A-549 cells; details: read-out: Activity on A-549: IC50, DMEM medium, 10% FBS
U-87 MG cells = test: alamarBlue proliferation assay with U-87 MG cells; details: read-out: Activity on U-87MG: IC50, EMEM medium, 10% FBS
Source text: (§1) These hyperproliferative processes can be benign or malignant and include hyperplasia, neoplasia, cancer and pre-cancerous lesions, and metastases. The antiproliferative activities of compounds falling under general formula (I) were investigated on human primary epidermal keratinocytes (HPEK) and human, murine and canine cell lines derived from hyperproliferative tissue or different cancer types, including MDA-MB-231, ZR-75-30, HCC-1395, HCC-1937, and T-47D all originating from cancer of the breast, JURKAT, RPMI-8402, LOUCY, TANQUE, REC-1, HL-60, NB-4 all originating from different types of blood cancer including lymphoma and leukemia of T-cells, B-cells and myeloid cells, TT originating from cancer of the neuroendocrine system, HeLa originating from cancer of the cervix, 23132/87, SW-948, and HCT-116 all originating from cancer of the gastrointestinal tract including stomach and colon, BHY originating from cancer of the mucosal epithelium, A-431 originating from cancer of the skin, HEP-G2 originating from cancer of the liver, NCI-H460 and A-549 both originating from cancer of the lung, PANC-1 originating from cancer of the pancreas, U-87 MG originating from cancer of the brain, A-375 and RVH-421 both originating from cancer of melanocytes, SW-1353 originating from cancer of bone-derived chondrocytes, C2C12 a mouse cell line originating from hyperproliferative muscle progenitor cells, LL/2 a mouse cell line originating from cancer of the lung, CF21.T a dog cell line originating from cancer of the connective tissue. To this end, according cells were seeded into 96-well plates (CORNING #3598) suitable for fluorescence assays at following initial cell numbers: 1000 cells per well for HPEK; 3000 cells per well for MDA-MB-231, 8000 cells per well for ZR-75-30, 1500 cells per well for HCC-1395, 1500 cells per well for HCC-1937, 3000 cells per well for T-47D, 1500 cells per well for JURKAT, 5000 cells per well for RPMI-8402, 9000 cells per well for LOUCY, 1500 cells per well for TANQUE, 9000 cells per well for REC-1, 1000 cells per well for HL-60, 1000 cells per well for NB-4, 9000 cells per well for TT, 2000 cells per well for HeLa, 2000 cells per well for 23132/87, 9000 cells per well for SW-948, 700 cells per well for HCT-116, 1500 cells per well for BHY, 700 cells per well for A-431, 1500 cells per well for HEP-G2, 500 cells per well for NCI-H460, 1000 cells per well for A-549, 1500 cells per well for PANC-1, 2500 cells per well for U-87 MG, 700 cells per well for A-375, 1500 cells per well for RVH-421, 2000 cells per well for SW-1353, 500 cells per well for C2C12, 500 cells per well for LL/2, and 3000 cells per well for CF21.T. In a volume of 90 μL per well of culture medium the cells were treated with compounds at indicated final concentrations by adding 10 μL per well of 10× compound working solutions from 1:100 pre-diluted 1000× compound DMSO stock-solutions in H2O (Water For Injection, WFI, Fisher Scientific, Gibco™ #A12873) or with the empty carrier DMSO (AppliChem, #A3672) at 0.1% v/v as control yielding a final volume of 100 μL per well. At day 5 after starting the treatments the cells were subjected to the alamarBlue® Proliferation Assay (Bio-Rad Serotec GmbH, BUF012B) according to the protocol of the manufacturer. The readout was taken with a multi-well plate-reader (Tecan Spark®) in the fluorescence mode with applying a filter for excitation at 560 nm (band width 10 nm) and for emission at 590 nm (band width 10 nm). Treatment for maximum proliferation inhibition with the commercial cytotoxic compound (S)-(+)-camptothecin (Fluorochem #M01564) at a concentration of 10 μM was included on each plate for assay quality control. Some of the test compounds of the present invention may have been obtained and applied as their salt forms.
(§2) The assays were performed in duplicate or more replicates of independent single experiments each containing a three- to six-fold replicate for every condition. […]

SW-1353 cells = test: alamarBlue proliferation assay with SW-1353 cells (glucose-free L-15 medium); details: read-out: Activity on SW-1353: IC50, Leibovitz's L-15 medium, 10% FBS, 0% CO2
C2C12 cells = test: alamarBlue proliferation assay with C2C12 cells; details: read-out: Activity on C2C12: IC50; C2C12 murine myoblast cells, RPMI 1640 medium, 10% FBS
Source text: as §1, §2

HPEKp cells = test: proliferation assay with human epidermal keratinocyte progenitors (HPEKp), selectivity versus MDA-MB-231; details: read-out: Activity (HPEK): antiproliferative activity on HPEK cells, IC50 category; HPEK cells cultivated in CnT-Prime medium
T-47D cells = test: alamarBlue proliferation assay with T-47D cells; details: read-out: Activity on T-47D (IC50), day 5
Source text: as §1, §2

TANQUE cells = test: alamarBlue proliferation assay with TANQUE cells; details: read-out: Activity on TANOUE: IC50, RPMI 1640 medium, 10% FBS
NB-4 cells = test: alamarBlue proliferation assay with NB-4 cells; details: read-out: Activity on NB-4: IC50, RPMI 1640 medium, 10% FBS
HCT-116 cells = test: alamarBlue proliferation assay with HCT-116 cells; details: read-out: Activity on HCT-116: IC50, McCoy's 5A medium, 10% FBS
BHY cells = test: alamarBlue proliferation assay with BHY cells; details: read-out: Activity on BHY: IC50, DMEM medium, 10% FBS
A-431 cells = test: alamarBlue proliferation assay with A-431 cells; details: read-out: Activity on A-431: IC50, DMEM medium, 10% FBS
A-375 cells = test: alamarBlue proliferation assay with A-375 cells; details: read-out: Activity on A-375: IC50, DMEM medium, 10% FBS
LL/2 cells = test: alamarBlue proliferation assay with LL/2 cells; details: read-out: Activity on LL/2: IC50; LL/2 murine Lewis lung carcinoma cells, DMEM medium, 10% FBS
[1] = system: mitochondrial transmembrane potential Δψm in A-549 cells; test: mitochondrial activity assay (TMRE staining, mitochondrial transmembrane potential) on A-549 cells; details: A-549 cells, compounds at 10 μM, 2 h 40 min, TMRE staining, relative to DMSO = 1.0
HEP-G2 cells = test: alamarBlue proliferation assay with HEP-G2 cells; details: read-out: Activity on HEP-G2: IC50, RPMI 1640 medium, 10% FBS
CF21.T cells = test: alamarBlue proliferation assay with CF21.T cells; details: read-out: Activity on CF21.T: IC50; CF21.T canine cells, DMEM medium, 10% FBS
Source text: as §1, §2

HL-60 cells = test: alamarBlue proliferation assay with HL-60 cells; details: read-out: Activity on HL-60: IC50, RPMI 1640 medium, 10% FBS
SW-948 cells = test: alamarBlue proliferation assay with SW-948 cells (glucose-free L-15 medium); details: read-out: Activity on SW-948: IC50, Leibovitz's L-15 medium, 10% FBS, 0% CO2
NCI-H460 cells = test: alamarBlue proliferation assay with NCI-H460 cells; details: read-out: Activity on NCI-H460: IC50, RPMI 1640 medium, 10% FBS
RVH-421 cells = test: alamarBlue proliferation assay with RVH-421 cells (glucose-free L-15 medium); details: read-out: Activity on RVH-421: IC50, Leibovitz's L-15 medium, 10% FBS, 0% CO2
JURKAT cells = test: alamarBlue proliferation assay with JURKAT cells; details: read-out: Activity on JURKAT (IC50), day 5
[2] = read-out: Activity (MDA): antiproliferative activity on MDA-MB-231 cells, IC50 category, MDA-MB-231 cells cultivated in glucose-free Leibovitz's L-15 medium
[3] = read-out: Activity on MDA-MB-231 (IC50), glucose-free Leibovitz's L-15, 10% FBS, day 5, alamarBlue

COc1ccc(CN2CCCN(C(=O)c3ccc(Oc4ccc(C5CCC6(CC5)OCCO6)cc4CO)cc3)CC2)cc1
IC50 (MDA-MB-231 cells; [2]): < 1000 nM | IC50 (MDA-MB-231 cells; [3]): ≤ 200 nM | IC50 (A-549 cells): ≤ 5000 nM | IC50 (U-87 MG cells): ≤ 20000 nM | IC50 (SW-1353 cells): ≤ 200 nM | IC50 (C2C12 cells): ≤ 5000 nM | IC50 (HPEKp cells): > 10000 nM

COc1ccc(CN2CCN(C(=O)c3ccc(Oc4ccc(C5CCC6(CC5)SCCCS6)cc4CO)cc3)CC2)cc1
IC50 (T-47D cells): ≤ 5000 nM | IC50 (TANQUE cells): ≤ 200 nM | IC50 (NB-4 cells): ≤ 200 nM | IC50 (HCT-116 cells): ≤ 200 nM | IC50 (BHY cells): ≤ 200 nM | IC50 (A-431 cells): ≤ 200 nM | IC50 (A-549 cells): ≤ 200 nM | IC50 (A-375 cells): ≤ 200 nM | IC50 (LL/2 cells): ≤ 200 nM

O=C(c1ccc(Oc2ccc(C3CCC4(CC3)SCCCS4)cc2CO)cc1)N1CCN(Cc2ccc(Cl)cc2)CC1
IC50 (T-47D cells): ≤ 5000 nM | IC50 (TANQUE cells): ≤ 200 nM | IC50 (NB-4 cells): ≤ 200 nM | IC50 (HCT-116 cells): ≤ 200 nM | IC50 (BHY cells): ≤ 200 nM | IC50 (A-431 cells): ≤ 200 nM | IC50 (A-549 cells): ≤ 200 nM | IC50 (A-375 cells): ≤ 200 nM | IC50 (LL/2 cells): ≤ 200 nM | Activity: relative mitochondrial transmembrane potential Δψm [1]: Δψm ≤0.7

CC1(C)COC2(CCC(c3ccc(Oc4ccc(C(=O)N5CCN(Cc6ccc(Cl)cc6)CC5)cc4)c(CO)c3)CC2)OC1
IC50 (MDA-MB-231 cells; [3]): ≤ 200 nM | IC50 (T-47D cells): ≤ 5000 nM | IC50 (TANQUE cells): ≤ 200 nM | IC50 (NB-4 cells): ≤ 200 nM | IC50 (HCT-116 cells): ≤ 200 nM | IC50 (BHY cells): ≤ 200 nM | IC50 (HEP-G2 cells): ≤ 200 nM | IC50 (A-549 cells): ≤ 200 nM | IC50 (LL/2 cells): ≤ 1000 nM | IC50 (CF21.T cells): ≤ 1000 nM

COC1CCC(c2ccc(Oc3ccc(C(=O)N4CCN(Cc5ccc(OCC(F)(F)F)cc5)CC4)cc3)c(C=O)c2)CC1 (stereo not shown)
IC50 (MDA-MB-231 cells; [3]): ≤ 200 nM | IC50 (T-47D cells): ≤ 1000 nM | IC50 (TANQUE cells): ≤ 200 nM | IC50 (NB-4 cells): ≤ 200 nM | IC50 (HCT-116 cells): ≤ 200 nM | IC50 (BHY cells): ≤ 200 nM | IC50 (A-549 cells): ≤ 200 nM | IC50 (A-375 cells): ≤ 200 nM | IC50 (LL/2 cells): ≤ 200 nM | Activity: relative mitochondrial transmembrane potential Δψm [1]: Δψm ≤0.7

COc1ccc(CN2CCN(C(=O)c3ccc(Oc4ccc(C5CCC6(CC5)OCCO6)cc4CO)cc3)CC2)cc1
IC50 (MDA-MB-231 cells; [2]): < 1000 nM | IC50 (MDA-MB-231 cells; [3]): ≤ 200 nM | IC50 (TANQUE cells): ≤ 200 nM | IC50 (HL-60 cells): ≤ 200 nM | IC50 (NB-4 cells): ≤ 200 nM | IC50 (SW-948 cells): ≤ 200 nM | IC50 (HCT-116 cells): ≤ 200 nM | IC50 (BHY cells): ≤ 200 nM | IC50 (A-431 cells): ≤ 200 nM | IC50 (HEP-G2 cells): ≤ 200 nM | IC50 (NCI-H460 cells): ≤ 200 nM | IC50 (A-549 cells): ≤ 200 nM | IC50 (U-87 MG cells): ≤ 20000 nM | IC50 (RVH-421 cells): ≤ 200 nM | IC50 (SW-1353 cells): ≤ 200 nM | IC50 (LL/2 cells): ≤ 200 nM | IC50 (HPEKp cells): < 10000 nM

O=C(c1ccc(Oc2ccc(C3CCC4(CC3)OCCO4)cc2CO)cc1)N1CC2(CN(Cc3ccccc3)C2)C1
IC50 (MDA-MB-231 cells; [2]): < 1000 nM | IC50 (MDA-MB-231 cells; [3]): ≤ 200 nM | IC50 (JURKAT cells): ≤ 5000 nM | IC50 (HL-60 cells): ≤ 1000 nM | IC50 (SW-948 cells): ≤ 1000 nM | IC50 (NCI-H460 cells): ≤ 200 nM | IC50 (A-549 cells): ≤ 5000 nM | IC50 (U-87 MG cells): ≤ 20000 nM | IC50 (RVH-421 cells): ≤ 200 nM | IC50 (SW-1353 cells): ≤ 200 nM | IC50 (HPEKp cells): < 10000 nM

O=C(c1ccc(Oc2ccc(C3CCC4(CC3)OCCO4)cc2CO)cc1)N1CCN(c2ccc(Cl)cc2)CC1
IC50 (MDA-MB-231 cells; [2]): < 1000 nM | IC50 (MDA-MB-231 cells; [3]): ≤ 1000 nM | IC50 (JURKAT cells): ≤ 5000 nM | IC50 (HL-60 cells): ≤ 5000 nM | IC50 (SW-948 cells): ≤ 5000 nM | IC50 (NCI-H460 cells): ≤ 5000 nM | IC50 (A-549 cells): ≤ 5000 nM | IC50 (U-87 MG cells): ≤ 20000 nM | IC50 (RVH-421 cells): ≤ 1000 nM | IC50 (SW-1353 cells): ≤ 5000 nM | IC50 (HPEKp cells): < 10000 nM
